## scFv variants of Ab-95 (light chain) against a SARS-CoV-2 spike peptide

Source: Engelhart et al. 2022 (doi:10.1038/s41597-022-01779-4), MIT Lincoln Laboratory and A-Alpha Bio; data file from the FLAb repository.

Target: peptide PDVDLGDISGINAS, taken from heptad repeat 2 (HR2) of SARS-CoV-2 spike.

The variants keep the heavy chain, the linker and the frameworks of Ab-95 (scFv order VH, a 15-residue (Gly4Ser)3 linker, VL).
VH: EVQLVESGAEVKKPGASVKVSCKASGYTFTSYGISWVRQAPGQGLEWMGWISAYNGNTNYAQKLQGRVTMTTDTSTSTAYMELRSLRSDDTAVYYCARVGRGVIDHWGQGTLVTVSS
VL: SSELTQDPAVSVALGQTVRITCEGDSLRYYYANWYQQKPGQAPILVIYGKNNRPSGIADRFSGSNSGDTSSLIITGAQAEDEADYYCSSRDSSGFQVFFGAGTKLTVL

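The parent was found by panning a naive human phage display library on the peptide. The library (AAYL52) carries one to three amino acid substitutions per variant, with no insertions or deletions. Affinity was read by AlphaSeq, a pooled yeast mating assay with surface-displayed partners. Pairs that bind mate more often; barcode pairs of the diploids are counted by sequencing. Each replicate has its own calibration line, from reference interactions of the BCL2 family. The assay was run in three technical replicates.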

Positions count from residue 1 of the parent VL; E23W puts W in place of E. Numbers give log10(Kd / nM), so 0 is 1 nM and 3 is 1 µM. Smaller is tighter. Averages over replicates are reported, and they cover detected replicates only. "nd" marks a missing value. The strain was present, yet no cells mated with the target were sequenced in any replicate, which points to weak or no binding. For reference, the parent read 2.31 as the reference entry and 2.25 as a member of this library. As a blank, each scFv also met three strains without target: over library AAYL52, 28% of these pairings were detected, typically at 3.91 and seldom below 2.90. Also given: how often the same scFv was detected with the empty control strains.

The variant E23W+Y30R+S89N gave 2.10 (3 of 3 replicates; controls 2 of 9).
The variant E23I+L27D+V97N gave 4.94 (2 of 3 replicates; controls 2 of 9).
The variant N51Q+S55P gave 2.65 (3 of 3 replicates; controls 1 of 9).
The variant E23H+G94C+Q96Y gave 2.88 (3 of 3 replicates; controls 2 of 9).
The variant Y31E+N51S+F98E gave 2.10 (3 of 3 replicates; controls 2 of 9).
The variant G24N+N33A+K50T gave 3.84 (1 of 3 replicates; controls 2 of 9).
The variant D25L+N51G+S93M gave 2.65 (3 of 3 replicates; controls 4 of 9).
The variant L27S+G94V+V97P gave 4.16 (2 of 3 replicates; controls 7 of 9).
The variant P54D+S55C+D91K gave 5.27 (2 of 3 replicates; controls 2 of 9).
The variant D25V+S55D+D91W gave 4.00 (3 of 3 replicates; controls 2 of 9).
The variant N51R+S92A+S93T gave 3.40 (2 of 3 replicates; controls 1 of 9).
The variant Y30C+Q96F+F98C gave 3.69 (1 of 3 replicates; controls 1 of 9).
The variant G24N+S26W+A32M gave 4.39 (2 of 3 replicates; controls 2 of 9).
The variant E23V+S26I+R90G gave 4.79 (2 of 3 replicates; controls 5 of 9).
The variant D25L+K50G+N51S gave 2.26 (3 of 3 replicates; controls 2 of 9).
The variant L27D+N52G+Q96I gave nd (0 of 3 replicates; controls 1 of 9).
The variant E23F+G24Y+D91W gave 4.07 (2 of 3 replicates; controls 3 of 9).
The variant S88G+G94L+V97L gave nd (0 of 3 replicates; controls 3 of 9).
The variant D25P+G49V+N52C gave 2.50 (3 of 3 replicates; controls 4 of 9).
The variant Y29R+N51P+S88Q gave 5.45 (1 of 3 replicates; controls 2 of 9).
The variant R53M+S89D+S92P gave nd (0 of 3 replicates; controls 2 of 9).
The variant Y31F+D91R+F95N gave 2.36 (3 of 3 replicates; controls 4 of 9).
The variant K50W+R53V+S93V gave nd (0 of 3 replicates; controls 0 of 9).
The variant G24C+V97D+F98S gave 3.59 (2 of 3 replicates; controls 4 of 9).
The variant Y30P+S92P+V97H gave 2.50 (3 of 3 replicates; controls 2 of 9).
The variant R28I+Y30T+D91M gave 3.38 (1 of 3 replicates; controls 5 of 9).
The variant D25H+S93V+F95N gave 3.09 (3 of 3 replicates; controls 1 of 9).
The variant N33Y+S55K+F98A gave 3.43 (3 of 3 replicates; controls 5 of 9).
The variant E23P+D25V+R53W gave 3.77 (2 of 3 replicates; controls 5 of 9).
The variant A32C+N51M+Q96L gave 4.00 (1 of 3 replicates; controls 3 of 9).
The variant G24P+S55K+S88V gave 4.69 (3 of 3 replicates; controls 3 of 9).
The variant G24P+S93V+G94K gave 4.02 (3 of 3 replicates; controls 3 of 9).
The variant A32M+P54V+S89L gave 4.56 (1 of 3 replicates; controls 0 of 9).
The variant Y31T+K50N+S88P gave 1.99 (3 of 3 replicates; controls 2 of 9).
The variant S26E+Y30H+F95G gave 2.45 (3 of 3 replicates; controls 2 of 9).
The variant E23I+K50W+Q96N gave 3.65 (3 of 3 replicates; controls 5 of 9).
The variant G24P+R53K+S93C gave nd (0 of 3 replicates; controls 0 of 9).
The variant G24I+L27N+R90N gave 3.39 (3 of 3 replicates; controls 4 of 9).
The variant N51D+N52Q+R53L gave 2.50 (3 of 3 replicates; controls 4 of 9).
The variant Y29W+Y31M+F95Q gave 2.31 (3 of 3 replicates; controls 4 of 9).
The variant Y30K+G49S+S93G gave 2.65 (3 of 3 replicates; controls 8 of 9).
The variant S26E+Y29N+A32T gave 2.98 (3 of 3 replicates; controls 3 of 9).
The variant S26N+R28W+N33K gave nd (0 of 3 replicates; controls 0 of 9).
The variant Y29R+A32E+R53A gave nd (0 of 3 replicates; controls 2 of 9).

Excerpt, the final 3 entries:

With S26E+Y29N+A32T the result was 2.98 (3 of 3 replicates; controls 3 of 9).
With S26N+R28W+N33K the result was nd (0 of 3 replicates; controls 0 of 9).
With Y29R+A32E+R53A the result was nd (0 of 3 replicates; controls 2 of 9).